Where a name gives a salt, the structure may show the parent alone.
Test system: full thickness pig skin
Conditions: female
Source text: (§1) HPLC was used to quantify delivered mass, and to calculate permabilities in lag times. Error bar represents mean+/−standard deviation.
as §1

For `CCCNC(C)C(=O)Nc1ccccc1C` (stereo not shown) [Prilocaine HCl], the Lag time was 10.3 ± 1.1 h.
